# Test results: PubChem BioAssay AID540299 (ICCB-Longwood Screening Facility, Harvard Medical School, 2011)
# Protein sequences, listed by entry. Tags and fused reporters are not part of them.
# UniProt P9WNP5, whole entry: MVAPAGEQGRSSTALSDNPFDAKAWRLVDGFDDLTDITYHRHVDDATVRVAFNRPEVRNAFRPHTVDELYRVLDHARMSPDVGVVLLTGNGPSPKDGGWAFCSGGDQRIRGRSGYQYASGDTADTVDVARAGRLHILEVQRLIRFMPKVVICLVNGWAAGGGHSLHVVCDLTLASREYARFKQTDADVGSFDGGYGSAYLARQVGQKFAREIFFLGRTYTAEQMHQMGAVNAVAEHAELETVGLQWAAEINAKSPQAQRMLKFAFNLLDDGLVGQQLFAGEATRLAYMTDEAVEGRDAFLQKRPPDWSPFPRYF
# The entries are a selection whose mix differs from that of the whole data set. Some tests of the compounds listed are not included; inactive here does not mean inactive elsewhere. Activity calls are given as the source filed them. Cut-off read from the data, not from the text of the source: active = inhibition above about 21% (passing the limit was not always enough); inactive = the rest.
# Biological target: 1,4-dihydroxy-2-naphthoyl-CoA synthase (Mycobacterium tuberculosis (strain ATCC 25618 / H37Rv)) (UniProt P9WNP5)
# Assay: M. tuberculosis MenB inhibitors, primary screen, biochemical, absorbance (AID 540299)
# Settings: MenB enzyme assay, absorbance read-out; stronger effect = higher value; concentration not given here
row,SMILES,inhibition
1,CN1C2CCC1CC(OC(=O)C(O)(c1ccccc1)c1ccccc1)C2 (stereo not drawn),inactive: 25.6%
2,O=C(NCC1(N2CCCCC2)CCCCC1)c1ccc2c(c1)OCCO2,inactive: -3.66%
3,O=C(OC1CN2CCC1CC2)C(CO)(c1ccccc1)c1ccccc1 (stereo not drawn),inactive: -17.9%
4,N#CC(C#N)=Cc1ccccc1,inactive: -5.65%
5,CN(C)C1(CNC(=O)c2ccncc2)CCCCC1,inactive: -8.66%
6,COc1ccc(OC)c(C=C(C#N)C#N)c1,inactive: -29.6%
7,CN(C)c1ccc(C(=O)NCC2(N(C)C)CCCCC2)cc1,inactive: -25.8%
8,O=C(NCC1(N2CCOCC2)CCCCC1)c1cnc(Cl)c(Cl)c1,inactive: -31.8%
